Where two headings read alike, the source gives them in different places.
Experiments:
[1] = target: chimeric protein kinase PKA-C^DNAJB1 (J-domain of DNAJB1 fused to the catalytic α subunit of PKA) (human (fusion gene found in tumours of FL-HCC patients)) (UniProt P25685)
[2] = target: chimeric protein kinase PKA-C^DNAJB1 (J-domain of DNAJB1 fused to the catalytic α subunit of PKA) (human (fusion gene found in tumours of FL-HCC patients)) (UniProt P25685); remark: listed apart in the source

PKI_(5–24), peptide of the endogenous protein kinase inhibitor PKI
Kd [1]: 1.1 µM | Kd [2]: 9 µM

Source: PMC7946884
